Article PMC8671752, “Effects of ex vivo Extracorporeal Membrane Oxygenation Circuits on Sequestration of Antimicrobial Agents” (Frontiers in Medicine, 2021)

Experiments:
[1] = Control group: spontaneous drug degradation in whole blood at 37°C; conditions: control of Sorin experiment, whole human blood, no circuit, HPLC-MS/MS, % of 2 min concentration, single measurement; for Drug recovery, Control-12 h (Sorin experiment): water bath 37°C 12 h
[2] = Drug recovery in the Sorin ECMO circuit; conditions: phosphorylcholine-coated circuit, whole human blood, 37°C, HPLC-MS/MS, % of 2 min concentration, single measurement

Row | Compound | Drug recovery, Control-3 h (Sorin experiment) ([1]; water bath 37°C 3 h) [%] | Drug recovery, Control-12 h (Sorin experiment) [1] [%] | Drug recovery, Sorin circuit, 3 h ([2]; 3 h) [%] | Drug recovery, Sorin circuit, 5 min ([2]; 5 min) [%] | Drug recovery, Sorin circuit, 15 min ([2]; 15 min) [%] | Drug recovery, Sorin circuit, 30 min ([2]; 30 min) [%] | Drug recovery, Sorin circuit, 1 h ([2]; 1 h) [%]
1 | CCN1CCN(C(=O)N[C@@H](C(=O)N[C@@H]2C(=O)N3C(C(=O)O)=C(CSc4nnnn4C)CS[C@H]23)c2ccc(O)cc2)C(=O)C1=O [Cefoperazone, cefoperazone] | 103 | 101 | 103 |  |  |  | 
2 | C[C@@H](O)[C@H]1C(=O)N2C(C(=O)O)=C(S[C@@H]3CN[C@H](C(=O)N(C)C)C3)[C@H](C)[C@H]12 [Meropenem, meropenem] |  | 106 |  | 104 | 104 | 104 | 103
